Data as given in US20010056085A1, “Methods of using vesicant drug formulations” (priority 1996, published 2001).

Tests used:
[1] = Half-life of ADR destruction by UVA light in the presence of test compounds (decrease in absorbance at 480 nm); type: physicochemical
P388 cells = assay: In vitro cell culture assay: growth inhibitory effect of UVA-irradiated DOX solutions; type: cell-based, murine
Experimental: Cell culture was carried out as previously described (Ramu et al. [1984] Cancer Res., 44:144). Briefly, P388 murine leukemia cells (i.e., P388D1 available from the ATCC; […] An inoculum of cells was transferred to fresh medium once every 4 days to maintain exponential growth. […] Drug solutions (0.2 ml/well) in 24 well culture clusters without the lid were irradiated in a laminar flow hood with 3 Blacklight Blue 40 W lamps (Vilber Lourmat, Marne la Vallee, France).

[2] = Effect of UVA irradiation on the absorbance spectrum of DOX (350-600 nm; KDOX at 480 nm); type: physicochemical
[3] = UVA light, 100 μM test compound with 0.5 μM riboflavin
[4] = UVA light, 100 μM test compound alone

| Molecule | Half-Life of ADR Destruction, 100 μM Test Compound and 0.5 μM Riboflavin [1, 3] [min] | Half-Life of ADR Destruction, 100 μM Test Compound [1, 4] [min] | further results |
| --- | --- | --- | --- |
| 3-(N-Aminophenyl)-1-Propanol | 50.2 |  |  |
| Cn1c(=O)c2[nH]cnc2n(C)c1=O [1,3-Dimethyl Xanthine (Theophylline), 1,3-Dimethyl Xanthine, reference compound] | 14.3 | 50.2 |  |
| COc1ccccc1C=CC(=O)O [2-Methoxy Cinnamic Acid] | 30.1 | 43.0 |  |
| Nc1ccc(C(=O)O)cc1N [3,4-Diamino Benzoic Acid] | 50.2 |  |  |
| COc1cc(C=CC(=O)O)ccc1O [3-Methoxy-4-Hydroxy Cinnamic Acid] | 50.2 | 50.2 |  |
| O=[N+]([O-])c1ccc2[nH]ccc2c1 [5-Nitro Indole] | 21.5 |  |  |
| O=C1c2ccccc2Cc2ccccc21 [Anthrone] | 1.27 | 1.38 |  |
| COc1cccc2c1C(=O)c1c(O)c3c(c(O)c1C2=O)C[C@@](O)(C(=O)CO)C[C@@H]3O[C@H]1C[C@H](N)[C@H](O)[C@H](C)O1.Cl [DOX, Doxorubicin HCl, reference compound] |  |  | irradiation period required to prevent the growth inhibitory effects of DOX solutions (P388 cells; 0 to 3 μM DOX and 2 μM riboflavin, without DABCO): > 10 min; drug toxicity abolished (P388 cells; 0 to 3 μM DOX, 2 μM riboflavin, 5 mM DABCO in PBS, […] of UVA irradiation): about 90%; UVA exposure after which the growth inhibitory effect of DOX was destroyed (P388 cells; 0.3 μM DOX with 15 μM riboflavin in PBS): 8 min; effect of UVA irradiation on the growth inhibitory effect of the drug (P388 cells; DOX in PBS, irradiated for up to 30 minutes): did not affect the growth inhibitory effect; drug activity destroyed (P388 cells; DOX in RPMI medium 1640, 1 mm thick solution, 20 joules of UVA energy): about 90%; KDOX ([2]; 20 μM DOX, only the inorganic salts of RPMI medium 1640, 50 mM HEPES, UVA): 3.3e-05 s⁻¹; KDOX ([2]; RPMI medium 1640 without riboflavin): 0.00012 s⁻¹; KDOX ([2]; inorganic salt mixture + riboflavin 0.5 μM): 0.0001 s⁻¹; KDOX ([2]; inorganic salts + amino acid and vitamin mixtures): 0.000483 s⁻¹; KDOX ([2]; inorganic salts + histidine, methionine, tryptophan and tyrosine, without the vitamin mixture): 3.3e-05 s⁻¹; KDOX ([2]; inorganic salts + riboflavin 0.5 μM + histidine, methionine, tryptophan and tyrosine): 0.000367 s⁻¹; KDOX ([2]; inorganic salts + the 20 amino acids of RPMI medium 1640): 6.7e-05 s⁻¹; KDOX ([2]; inorganic salts + vitamin mixture): 0.00012 s⁻¹; KDOX ([2]; inorganic salts + vitamin mixture lacking riboflavin): 6.7e-05 s⁻¹; KDOX ([2]; inorganic salts + vitamin mixture lacking riboflavin + histidine, methionine, tryptophan and tyrosine): 8.3e-05 s⁻¹; KDOX ([2]; inorganic salts + vitamins + histidine, methionine, tryptophan and tyrosine): 0.000417 s⁻¹; KDOX ([2]; inorganic salts + vitamins + the other 16 amino acids): 5e-05 s⁻¹ |
| O=C(O)Cc1ccccc1Nc1c(Cl)cccc1Cl [Diclofenac, reference compound] | 15.8 | 20.1 |  |
| N[C@@H](CCc1ccccc1)C(=O)O [Homophenylalanine] | 75.3 |  |  |
| O=C(O)CNc1ccccc1 [N-Phenylglycine] | 15.8 | 43.0 | half-life (FIG. 32) ([1]; compound alone): 43.0; half-life (FIG. 32) in the presence of riboflavin ([1]; compound in combination with riboflavin): 15.8 |
| O=C(O)CCc1nc(-c2ccccc2)c(-c2ccccc2)o1 [Oxaprozine, reference compound] | 8.55 | 17.7 |  |
| CC1=C(CC(=O)O)c2cc(F)ccc2/C1=C\c1ccc([S+](C)[O-])cc1 (centres unmarked) [Sulindac, Methyl-4-[(5-fluoro2-methyl-indene-3-acetic acid)-1-methylene]phenyl sulfoxide, reference compound] | 100.3 | 100.3 |  |
| CC(C(=O)O)c1ccc(C(=O)c2cccs2)cc1 (centres unmarked) [Suprofen, reference compound] | <1.11 | 0.456 |  |
| O=C(O)C=Cc1cccs1 [Thiophene-2-acrylic acid] | 30.1 | 43.0 |  |
| Cc1ccc(C(=O)c2ccc(CC(=O)O)n2C)cc1 [Tolmetin, 1-Methyl-5-(4-methylbenzoyl)-pyrrole-2-acetic acid, reference compound] | 1.31 | 2.15 |  |
| N,N-Dimethyl-5-Methoxy Indole |  |  | Half-Life of ADR Destruction, 100 μM Test Compound [1]: 37.6 min; Half-Life of ADR Destruction, 100 μM Test Compound and 0.5 μM Riboflavin [1]: 15.8 min |

Read-outs that look alike come from different tables or passages of the source.
